Values quoted from earlier work as cited in paper PMC4291147, “Molecular Basis of Histone Tail Recognition by Human TIP5 PHD Finger and Bromodomain of the Chromatin Remodeling Complex NoRC” (Structure(London, England:1993), 2015).
pKd: −log10 of the molar value. Read-outs that look alike come from different tables or passages of the source.

Assays:
[1] = target: Histone H4 K16ac peptide (Homo sapiens) (UniProt P62805)
[2] = target: Histone H4 K16ac peptide (Homo sapiens) (UniProt P62805); remark: listed apart in the source

pKd [1]: 4.00 | pKd [2]: 4.00
Substance: BPTF BRD (from UniProt Q12830)
